In the assay the target is Phospholipase D2 (Homo sapiens, UniProt O14939). Put plainly: Inhibition of GFP-tagged PLD2 in HEK293 cells assessed as deuterated 1-butanol incorporation at […] pretreated for 5 mins prior to substrate addition measured after 30 mins by mass spectrometry. The format is cell-based.

By UniProt entry, the sequences of proteins in these tests, tags left out. Where a name states a change or a piece, a line headed by the entry shows the natural chain unless it says otherwise.
UniProt O14939: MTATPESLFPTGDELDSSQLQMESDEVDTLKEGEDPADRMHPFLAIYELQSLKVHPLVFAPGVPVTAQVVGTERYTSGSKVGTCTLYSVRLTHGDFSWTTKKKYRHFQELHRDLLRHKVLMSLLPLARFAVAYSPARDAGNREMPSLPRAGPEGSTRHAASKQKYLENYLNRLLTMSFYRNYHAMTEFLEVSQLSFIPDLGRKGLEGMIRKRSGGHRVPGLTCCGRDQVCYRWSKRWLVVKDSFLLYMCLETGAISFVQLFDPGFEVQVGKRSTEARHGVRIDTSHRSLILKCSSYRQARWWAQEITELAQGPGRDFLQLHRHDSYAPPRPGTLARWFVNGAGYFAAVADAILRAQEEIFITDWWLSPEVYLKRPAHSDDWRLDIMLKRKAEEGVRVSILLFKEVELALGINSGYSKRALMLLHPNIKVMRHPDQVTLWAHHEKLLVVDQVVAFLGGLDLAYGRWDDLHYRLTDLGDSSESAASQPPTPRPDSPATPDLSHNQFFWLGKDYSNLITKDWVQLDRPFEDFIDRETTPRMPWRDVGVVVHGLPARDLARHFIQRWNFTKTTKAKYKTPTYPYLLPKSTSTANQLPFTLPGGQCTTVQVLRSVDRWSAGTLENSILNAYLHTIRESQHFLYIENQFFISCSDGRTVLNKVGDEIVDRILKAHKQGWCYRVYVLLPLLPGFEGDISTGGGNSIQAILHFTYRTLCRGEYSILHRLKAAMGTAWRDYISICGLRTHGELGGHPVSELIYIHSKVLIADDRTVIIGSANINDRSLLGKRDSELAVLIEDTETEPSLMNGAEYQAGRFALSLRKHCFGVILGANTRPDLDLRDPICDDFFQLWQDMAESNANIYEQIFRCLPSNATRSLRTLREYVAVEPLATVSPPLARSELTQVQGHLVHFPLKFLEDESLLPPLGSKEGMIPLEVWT

Activity calls are given as the source filed them. No cut-off for these calls is given here.

Take `O=C(NCCN1CCC2(CC1)C(=O)NCN2c1cccc(F)c1)c1ccc2ccccc2c1`: the inhibition result is “Active”.

The record behind these values is ChEMBL document CHEMBL2321744 (J Med Chem, 2013).
